Shown are actives, neighbours in structure and some others; about 2.1% of the full set was active somewhere.
Yeast UUG start = yeast start codon fidelity modulation | S. cerevisiae UUG-firefly luciferase reporter, luminescence/redox ratio | activity score, % at 18.7 µM | 0.13% of 350,000 active | AID 602363;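 active means replicate mean at a twofold rise or more, about +100% in these data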;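 further: firefly luciferase made from a UUG start codon reports start codon fidelity; reporter light over untreated wells divided by growth signal over untreated wells; some hits fall short of that in this replicate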
PDI turbidity = blocks human protein disulfide isomerase activity; 350,000 tested, 0.052% active; inhibition, % at 10 µM; PDI insulin aggregation turbidity, A650, 90 min; AID 588391;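 active means mean inhibition across replicates of 30% or more, whatever share of single replicates reach that level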
SMARCA2 activ = activators of SMARCA2 function; MG213 cells, MMTV-luciferase reporter, dexamethasone, overnight; activation, % at 9.1 µM; 370,000 tested, 1% active; AID 652017; in the data active means activation above about 7.8%;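 further: 0% = vehicle wells and 100% = reference activator wells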
Rev-erbA mod = Rev-erb alpha (human) modulation; Rev-erbα–FITC-DNA binding, fluorescence polarization, 90 min; activity, % at 10 µM; 370,000 tested, 0.79% active;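 active means activity above about 14%, limit read from the data; passing the limit was not always enough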;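 further: 0% = DMSO wells with 35 nM protein and 100% = DMSO wells with 750 nM protein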
INS-1E GSIS act = primary screen for activators of insulin secretion dependent on glucose, INS-1E cells, GLuc reporter luminescence. INS-1E GLuc reporter insulin secretion, 2-3 h. activation, % at 16.6 µM. 370,000 tested, 0.61% active. AID 743287;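 active means lowest replicate activation of at least 40%, so every replicate reaches that level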;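 further: 0% = median of neutral control wells and 100% = median of IBMX positive control wells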
ERp5 inh = inhibitors of human ERp5; Q15084; ERp5 insulin aggregation, absorbance 650 nm, 90 min; inhibition, % at 9.99 µM; 350,000 tested, 0.05% active;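 active means mean replicate inhibition above about 25%, with every replicate also reaching it, limit read from the data, passing the limit was not always enough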
Rev-erbA confirm = confirmation of modulators of human Rev-erb alpha DNA binding | shares compounds with Rev-erbA mod | Rev-erb alpha FITC-DNA binding, fluorescence polarization, 90 min | activation, % at 25 µM | 3,000 tested, 61% active;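 active means activation at or above a set limit, or at least 3 SD above the negative control mean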;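 further: 0% = 35 nM protein with DMSO and 100% = 750 nM protein high control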
RORg counter = RORgamma DNA-binding activity, dose-response counter-screen; shares compounds with Rev-erbA mod; purified RORgamma protein-FITC-DNA binding, fluorescence polarization; IC50, µM; 910 tested, 8% active;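 active means Compounds whose fitted half-maximal concentration for disrupting protein-DNA binding is below 10 micromolar; the record names Rev-erb in its text, so the target is in doubt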
The depositor's hits bear a star; i = inactive; nt = no result given; + = active, no number.

SMILES	Yeast UUG start	PDI turbidity	SMARCA2 activ	Rev-erbA mod	INS-1E GSIS act	ERp5 inh	Rev-erbA confirm	others
O=S(=O)(N[C@@H]1CC[C@@H](CCn2cc(-c3cccnc3)nn2)O[C@@H]1CO)c1ccc(Cl)cc1	0	nt	nt	nt	1	0	nt
O=c1[nH]c(CSc2ncnc3sc(-c4ccccc4)cc23)nc2ccccc12	-19	0	0	39*	1	4	4
COC(=O)c1ccc2c(=O)n3c(nc2c1)SCC(c1ccccc1)=N3	3	-9	0	80*	nt	2	4
CCSc1nc2cc(C(=O)OC)ccc2c(=O)n1CC	-8	-5	-2	6	nt	nt	nt
CCN1C(=O)[C@H]2[C@@H](c3ccc(-c4cc(C(C)=O)cs4)cc3)N3CCC[C@@]3(C(=O)OC)[C@H]2C1=O	-15	-5	-1	-3	-17	0	nt
CCN1C(=O)[C@H]2[C@@H](c3ccc(-c4cc(C(C)=O)cs4)cc3)N3CCCC[C@@]3(C(=O)OC)[C@H]2C1=O	-25	7	-2	30*	-1	-2	21*
COc1ccc(-n2c(SCC(=O)NC3CCCCC3)nc3ccsc3c2=O)cc1	-16	13	-2	49*	11	-5	33*	RORg counter=>40
COc1ccc2nc(SCC(=O)NC3CCCC3)c(C)cc2c1	-5	-2	-1	29*	29	3	32*	RORg counter=>40
Cc1[nH]nc2nc(SCC(=O)NC3CCCCC3)n(-c3ccc(Br)cc3)c(=N)c12	-21	-4	-2	64*	-13	-2	65*	RORg counter=i
COc1ccc2c(C)cc(SCC(=O)NC3CCCC3)nc2c1	-12	3	-4	5	-8	-2	nt
C[C@H]1CCCCO[C@H](CN(C)C(=O)Cc2ccccc2)[C@@H](C)CN([C@@H](C)CO)C(=O)c2cc(NC(=O)Nc3ccccc3)ccc2O1	34	nt	nt	nt	-17	-2	nt
C[C@@H]1CN([C@@H](C)CO)C(=O)c2cc(NC(=O)CCCN(C)C)ccc2O[C@@H](C)CCCCO[C@H]1CN(C)CC1CCCCC1	-2	nt	nt	nt	2	-2	nt

Six compounds picked at random from those above, as already listed:
SMILES	Yeast UUG start	PDI turbidity	SMARCA2 activ	Rev-erbA mod	INS-1E GSIS act	ERp5 inh	Rev-erbA confirm	others
O=S(=O)(N[C@@H]1CC[C@@H](CCn2cc(-c3cccnc3)nn2)O[C@@H]1CO)c1ccc(Cl)cc1	0	nt	nt	nt	1	0	nt
COc1ccc(-n2c(SCC(=O)NC3CCCCC3)nc3ccsc3c2=O)cc1	-16	13	-2	49*	11	-5	33*	RORg counter=>40
CCSc1nc2cc(C(=O)OC)ccc2c(=O)n1CC	-8	-5	-2	6	nt	nt	nt
O=c1[nH]c(CSc2ncnc3sc(-c4ccccc4)cc23)nc2ccccc12	-19	0	0	39*	1	4	4
COc1ccc2c(C)cc(SCC(=O)NC3CCCC3)nc2c1	-12	3	-4	5	-8	-2	nt
Cc1[nH]nc2nc(SCC(=O)NC3CCCCC3)n(-c3ccc(Br)cc3)c(=N)c12	-21	-4	-2	64*	-13	-2	65*	RORg counter=i

Remaining list, next part:
SMILES	Yeast UUG start	PDI turbidity	SMARCA2 activ	Rev-erbA mod	INS-1E GSIS act	ERp5 inh	Rev-erbA confirm	others
CCCN(CCC)S(=O)(=O)c1ccc(C(=O)Nc2nc(-c3ccccc3)c(C(=O)OCC)s2)cc1	nt	-5	1	33*	-13	nt	12
CCOC(=O)c1sc(NC(=O)c2ccc(S(=O)(=O)N(C)C)cc2)nc1C	-11	-4	0	36*	nt	nt	38*	RORg counter=>40
COc1ccc2nc(C(F)(F)C(F)(F)F)c(C#N)c(N)c2c1	-14	-4	-1	46*	nt	nt	28*
COc1cc(OC)c2c(N)c(C#N)c(C(F)(F)C(F)(F)F)nc2c1	-17	5	-1	3	nt	nt	nt
CC(C)CCNC(=O)c1cc2c(=O)[nH]c3ccccc3c2s1	-13	-14	-2	30*	7	4	22*
Cc1ccc2[nH]c(=O)c3cc(C(=O)NCCC(C)C)sc3c2c1	-21	-1	2	-3	8	4	nt
COC(=O)c1ccccc1-c1ccc(/C=N/NC(=O)c2cc3ccccc3o2)o1	-8	3	2	0	-12	nt	nt
COC(=O)c1ccccc1-c1c2ccc(=N)cc-2oc2cc(N)ccc12	-91	-8	-3	+	-28	-17	+	RORg counter=>40
C#CCn1c(=NC(=O)c2ccc(Br)s2)sc2cccc(OC)c21	-12	nt	1	27*	nt	-1	43*	RORg counter=i
CC(C)NC(=O)N(C)C[C@H]1Oc2ccc(NS(=O)(=O)c3ccccc3)cc2CC(=O)N([C@@H](C)CO)C[C@@H]1C	nt	nt	nt	nt	13	nt	nt
Cc1ccc(-c2nnc(-n3ncc(C#N)c3N)c3ccccc23)cc1C	nt	6	1	33*	4	4	27*
COc1ccccc1-c1csc(-n2ncc(C#N)c2N)n1	-16	16	0	-16	17	2	nt
COc1cccc(NC(=O)c2cc(-c3cccnc3)nc3c(Cl)cccc23)c1	-2	0	-1	4	12	nt	nt
O=C(Nc1ccc(F)cc1)c1cc(-c2ccncc2)nc2c(Cl)cccc12	-13	11	-1	24*	-20	5	9
O=[N+]([O-])c1ccc(Oc2cccc(F)c2)c2ccncc12	nt	-2	0	14*	nt	nt	9
Nc1nc(-c2ccccc2)c(-c2ccccc2)n1N	nt	-1	1	6	11	-2	nt
c1ccc(-c2cnn3c(-c4ccccc4)c(-c4ccccc4)nc3n2)cc1	nt	-3	-3	123*	-4	nt	8
CCOC(=O)c1sc(NC(=O)c2ccccc2)cc1C	-12	0	4	2	nt	nt	nt
CCOC(=O)c1sc(NC(=O)c2ccc(Cl)s2)cc1C	-12	-5	2	16*	-7	0	12*
CCOC(=O)c1sc(NC(=S)NC(=O)C2CCCC2)cc1C	nt	7	1	70*	-11	nt	40*	RORg counter=>40
CO[C@@H]1CN(C)C(=O)c2ccc(NC(=O)C3CC3)cc2OC[C@@H](C)N(C(=O)c2ccccc2)C[C@H]1C	8	nt	nt	nt	-3	-5	nt
O=C(Nc1ccc(F)cc1)N1CC(=O)N2[C@H](CO)[C@@H](c3ccc(Br)cc3)[C@@H]2C1	nt	nt	nt	nt	-17	6	nt
Cc1ccc(C)c(NC(=O)CSc2nc3ccccc3nc2N2CCOCC2)c1	-12	nt	7	32*	15	3	24*
CCc1ccccc1NC(=O)CSc1nc2ccccc2nc1N1CCOCC1	1	nt	2	15	nt	0	nt
COc1ccc(NC(=O)COc2nc3ccccc3nc2N2CCOCC2)c(OC)c1	nt	-2	-6	24*	-4	3	10
Cc1cc(C)c2nc(SCC(=O)Nc3ccccc3N3CCOCC3)c(C#N)cc2c1	-8	-5	8	65*	nt	nt	32*	RORg counter=>40
Cc1cc(C)c2nc(SCC(=O)N3CC(=O)Nc4ccccc43)c(C#N)cc2c1	-11	-1	3	98*	nt	nt	64*	RORg counter=>40
CC(C)OC(=O)N(C)C[C@H]1OCc2ccccc2-c2c(n(C)c3ccccc23)C(=O)N([C@H](C)CO)C[C@H]1C	10	nt	nt	nt	-10	-6	nt
C[C@H](CO)N1C[C@H](C)[C@@H](CN(C)S(=O)(=O)c2cn(C)cn2)Oc2ccc(NC(=O)CCCCCC(=O)Nc3ccccc3N)cc2C1=O	-9	nt	nt	nt	3	-1	nt
CCCN(C)C[C@H]1OCCCC[C@H](C)Oc2ccc(NC(=O)c3ccncc3)cc2C(=O)N([C@H](C)CO)C[C@H]1C	nt	nt	nt	nt	18	nt	nt
COc1ccc(S(=O)(=O)N(C)C[C@H]2Oc3ccc(NS(=O)(=O)c4ccc(C)cc4)cc3C(=O)N([C@@H](C)CO)C[C@H]2C)cc1	nt	nt	nt	nt	-12	-3	nt
Cc1ccccc1NC(=O)CSc1nc2cc3c(cc2cc1C)CCC3	nt	-17	1	102*	10	-1	23*
